This is an account of results in US5738858A (dated 1998).

The target of the assay is T1, LRAT (Bos taurus, UniProt Q9BGL2).
T1 sequence (Q9BGL2 1-230): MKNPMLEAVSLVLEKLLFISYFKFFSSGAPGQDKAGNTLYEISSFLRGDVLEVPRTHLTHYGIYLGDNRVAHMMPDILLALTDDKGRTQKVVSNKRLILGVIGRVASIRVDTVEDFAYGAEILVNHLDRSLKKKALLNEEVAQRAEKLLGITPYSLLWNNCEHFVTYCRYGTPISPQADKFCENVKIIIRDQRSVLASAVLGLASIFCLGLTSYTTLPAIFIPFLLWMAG
Kind of assay: In vitro microsomal esterification of retinol, LRAT catalyzed (retinyl laurate formation). As to conditions: 100 μM; Table 2; 1 hour, 37° C.

`CCCCCCCC/C=C\CCCCCCCC[N+](C)(C)[O-]` [oleamine oxide]: the “% INHIB. LRAT” value came out at 0%.
